Earlier results in patent US20210346383A1, “COMPOUNDS, COMPOSITIONS AND METHODS FOR TREATING OR PREVENTING HER-DRIVEN CANCERS” (Rain Therapeutics Inc., priority 2018, published 2021).

Chains of the proteins cited; added tags and fusions are not shown. Residues count along the entry.
UniProt P00533, 25-1210 T790M/L858R: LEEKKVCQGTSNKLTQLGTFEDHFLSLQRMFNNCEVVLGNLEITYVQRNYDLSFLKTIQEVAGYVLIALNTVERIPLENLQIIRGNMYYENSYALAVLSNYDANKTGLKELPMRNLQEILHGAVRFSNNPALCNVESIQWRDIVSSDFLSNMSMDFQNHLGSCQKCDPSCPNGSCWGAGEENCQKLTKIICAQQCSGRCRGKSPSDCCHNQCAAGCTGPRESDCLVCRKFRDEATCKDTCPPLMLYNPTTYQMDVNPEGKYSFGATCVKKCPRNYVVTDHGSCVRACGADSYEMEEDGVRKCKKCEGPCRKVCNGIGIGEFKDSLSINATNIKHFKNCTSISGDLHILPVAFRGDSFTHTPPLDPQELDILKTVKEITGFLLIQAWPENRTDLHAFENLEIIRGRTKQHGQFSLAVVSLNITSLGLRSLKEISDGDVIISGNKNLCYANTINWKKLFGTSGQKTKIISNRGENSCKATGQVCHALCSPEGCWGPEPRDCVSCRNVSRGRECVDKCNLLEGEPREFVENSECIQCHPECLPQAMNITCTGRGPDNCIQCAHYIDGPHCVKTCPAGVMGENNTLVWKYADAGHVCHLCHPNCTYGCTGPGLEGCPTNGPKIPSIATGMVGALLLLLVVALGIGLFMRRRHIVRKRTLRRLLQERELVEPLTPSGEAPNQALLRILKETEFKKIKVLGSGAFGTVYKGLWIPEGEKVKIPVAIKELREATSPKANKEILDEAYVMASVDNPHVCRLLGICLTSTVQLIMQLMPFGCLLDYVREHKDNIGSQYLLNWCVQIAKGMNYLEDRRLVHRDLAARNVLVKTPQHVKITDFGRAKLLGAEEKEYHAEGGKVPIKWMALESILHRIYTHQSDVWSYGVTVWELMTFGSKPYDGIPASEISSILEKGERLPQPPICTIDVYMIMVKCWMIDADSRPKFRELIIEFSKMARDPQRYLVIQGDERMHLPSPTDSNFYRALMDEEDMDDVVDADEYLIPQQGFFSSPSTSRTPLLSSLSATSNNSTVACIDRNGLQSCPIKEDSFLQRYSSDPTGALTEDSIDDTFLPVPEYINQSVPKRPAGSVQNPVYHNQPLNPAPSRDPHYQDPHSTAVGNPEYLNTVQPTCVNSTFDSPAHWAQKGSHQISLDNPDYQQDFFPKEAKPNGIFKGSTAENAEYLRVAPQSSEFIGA
UniProt P00533, 25-1210 T790M/C797S/L858R: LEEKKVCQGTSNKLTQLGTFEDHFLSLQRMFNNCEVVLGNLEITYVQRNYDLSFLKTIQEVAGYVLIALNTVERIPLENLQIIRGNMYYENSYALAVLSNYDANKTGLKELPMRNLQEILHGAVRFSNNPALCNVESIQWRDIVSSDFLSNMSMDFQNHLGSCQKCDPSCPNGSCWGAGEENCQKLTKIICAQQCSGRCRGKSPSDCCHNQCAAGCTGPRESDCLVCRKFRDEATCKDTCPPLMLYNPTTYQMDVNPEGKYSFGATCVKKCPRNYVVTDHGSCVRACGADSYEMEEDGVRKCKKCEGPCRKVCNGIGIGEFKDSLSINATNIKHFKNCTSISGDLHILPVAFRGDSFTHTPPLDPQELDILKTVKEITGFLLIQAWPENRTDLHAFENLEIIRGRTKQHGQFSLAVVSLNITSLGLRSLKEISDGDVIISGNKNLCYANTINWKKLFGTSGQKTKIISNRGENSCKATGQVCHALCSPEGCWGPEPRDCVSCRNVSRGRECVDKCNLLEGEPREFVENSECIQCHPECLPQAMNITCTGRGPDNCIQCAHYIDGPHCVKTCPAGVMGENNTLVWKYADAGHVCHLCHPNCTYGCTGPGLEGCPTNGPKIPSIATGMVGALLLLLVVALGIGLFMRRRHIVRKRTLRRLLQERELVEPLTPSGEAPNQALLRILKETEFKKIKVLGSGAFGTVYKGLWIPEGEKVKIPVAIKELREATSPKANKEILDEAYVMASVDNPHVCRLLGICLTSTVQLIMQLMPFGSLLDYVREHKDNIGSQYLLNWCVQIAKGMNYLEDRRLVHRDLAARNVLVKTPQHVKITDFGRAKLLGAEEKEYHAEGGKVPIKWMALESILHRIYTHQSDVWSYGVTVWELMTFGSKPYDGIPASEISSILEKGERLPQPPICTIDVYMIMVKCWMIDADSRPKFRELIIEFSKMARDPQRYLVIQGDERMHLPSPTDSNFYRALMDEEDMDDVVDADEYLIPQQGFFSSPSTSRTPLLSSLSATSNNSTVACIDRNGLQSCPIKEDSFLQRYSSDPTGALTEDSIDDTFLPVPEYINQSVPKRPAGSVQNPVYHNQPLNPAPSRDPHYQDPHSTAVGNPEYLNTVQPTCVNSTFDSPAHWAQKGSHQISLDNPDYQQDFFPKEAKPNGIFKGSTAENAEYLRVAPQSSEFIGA

How the values were obtained:
EGFR (L858R/T790M) = EGFR (L858R/T790M) (Homo sapiens, UniProt P00533, L858R/T790M); conditions: read-out: IC50, published data; cited from earlier work
EGFR (L858R/T790M/C797S) = EGFR (L858R/T790M/C797S) (Homo sapiens, UniProt P00533, C797S/L858R/T790M); conditions: read-out: IC50, published data; cited from earlier work

Cc1cc(C(=O)Nc2nc3cccc(Cl)c3n2[C@@H]2CCCCN(C(=O)/C=C/CN(C)C)C2)ccn1 [EGF816]
IC50 (EGFR (L858R/T790M)): < 0.001 µM
IC50 (EGFR (L858R/T790M/C797S)): 0.196 µM
